According to patent publication US20220056123A1, “USE OF IL-1BETA BINDING ANTIBODIES” (NOVARTIS AG, priority 2018, published 2022):

Target: IL-1β (Homo sapiens, UniProt P01584)
Experiment: In vitro potency (IC50) of IL-1β antibodies
Assay type: biochemical

gevokizumab: high-affinity, humanized monoclonal antibody of the IgG2 isotype to interleukin-1β
in vitro potency compared to canakinumab: ~10 times higher
IC50 (in vitro potency): 2 to 5 µM
